From PubChem BioAssay AID485367 (National Center for Advancing Translational Sciences (NCATS), 2010)
In all, about 330,000 compounds went through this assay and about 560 (0.17%) were called active. The source calls these results inconclusive, neither active nor inactive. Calls come from the whole dose curve; as a rule, active = well fitted inhibition curve with a large enough effect; inconclusive = small, poorly fitted or top-dose-only effect, or effect the other way; inactive = flat fitted curve, though single readings scatter.

Protein sequences, listed by entry. Tags and fused reporters are not part of them. Lines headed by an entry give the natural chain unless they say otherwise; changes in a name come on top.
UniProt O15648: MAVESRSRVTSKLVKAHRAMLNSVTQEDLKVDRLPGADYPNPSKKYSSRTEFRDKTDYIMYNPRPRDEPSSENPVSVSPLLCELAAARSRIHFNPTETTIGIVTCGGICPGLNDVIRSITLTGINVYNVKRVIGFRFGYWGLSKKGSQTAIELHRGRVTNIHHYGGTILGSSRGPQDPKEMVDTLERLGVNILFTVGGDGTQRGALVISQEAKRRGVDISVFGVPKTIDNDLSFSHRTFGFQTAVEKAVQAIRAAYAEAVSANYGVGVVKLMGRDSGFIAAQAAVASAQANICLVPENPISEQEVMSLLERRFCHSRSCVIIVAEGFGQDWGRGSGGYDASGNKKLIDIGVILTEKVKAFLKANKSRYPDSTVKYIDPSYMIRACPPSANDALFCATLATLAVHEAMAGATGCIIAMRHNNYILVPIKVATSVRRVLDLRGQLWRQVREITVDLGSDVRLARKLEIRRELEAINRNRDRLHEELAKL

biological target: ATP-dependent 6-phosphofructokinase (Trypanosoma brucei brucei) (UniProt O15648); assay: qHTS Assay to Find Inhibitors of T. brucei phosphofructokinase; note: nearly all actives have a fitted effect of over 60% in size; settings: T. brucei PFK, ADP-Glo luminescence
Source text: NIH Molecular Libraries Probe Production Network [MLPCN] NIH Chemical Genomics Center [NCGC] Grant: 1 R03 MH092153-01 PI Name: Malcolm Walkinshaw, University of Edinburgh NCGC Assay Overview: Various species of the protozoan family Trypanosomatidae are responsible for a range of serious human diseases in tropical and subtropical areas of the world. […] Many of the disorders caused by trypanosomatids are fatal if left untreated, but most currently used drugs are inefficient and toxic. […] Oxidative metabolism involving the mitochondrial tricarboxylic acid cycle and oxidative phosphorylation are repressed in these parasites, and recent RNA interference (RNAi) experiments have shown that even partial depletion of certain individual glycolytic enzymes can lead to the death of cultured parasites. […] A luminescence-based assay for T. brucei PFK activity has been developed which uses luciferase to detect production of ADP. […] To directly measure the ADP product of the PFK reaction, we used the ADP-Glo detection kit (Promega), which utilizes two separate reactions to 1) deplete all remaining uncatalyzed ATP and 2) convert all remaining ADP to ATP, which is then detected through a traditional luciferase-coupled reaction. […]
NCGC Assay Protocol Summary: NCGC Assay Protocol Summary: Substrate buffer was dispensed into white, solid 1536-well plates at 3uL/well in 0.1M triethanolamine (TEA) buffer, pH 8.0, containing final concentrations of 5 mM MgCl2, 0.01% Tween20, 0.5 mM fructose-6-phosphate (F6P) and 0.1mM ATP. […] The luminescent detection reagent, ADP-Glo (Promega), was then added in two steps: the first reagent, ADP-Glo (which converts remaining uncatalyzed ATP), was added at 2.5uL/well and incubated for ten minutes at room temperature, and the second component, Kinase Detection reagent (which converts ADP to ATP as a substrate for luciferase-based luminescence), was added immediately after at 5uL/well, followed by one final ten minute room temperature incubation. The plates were measured on a ViewLux plate reader for luminescent signal using a clear filter with a one second exposure. […]
Potency is the fitted concentration of half-maximal effect.

SMILES	Potency
Cc1cc(SC(NC=O)C(Cl)(Cl)Cl)ncn1 (stereo not drawn)	inconclusive: 26.9 µM
Nc1cccc2c([As](=O)(O)O)cccc12	inconclusive: 30.1 µM
CN(C(=O)Cc1ccc(Cl)c(Cl)c1)[C@H]1CCCC[C@H]1N1CCCC1	inconclusive: 0.536 µM
